# Values quoted from earlier work as cited in PMC7000712, “A kinetic method for measuring agonist efficacy and ligand bias using high resolution biosensors and a kinetic data analysis framework” (Scientific Reports, 2020).
# Test system: dopamine D2 receptor
# Design: method as in PMID 22025698, PMID 27805392, PMID 22845053, PMID 18455202, PMID 18768802
# Details: cited from earlier work
smiles,measurement,value
O=C1CCc2ccc(OCCCCN3CCN(c4cccc(Cl)c4Cl)CC3)cc2N1 [aripiprazole],arrestin bias (in words),arrestin-biased ligand
